Source: patent US20050112063A1, “Methods for inhibiting vascular permeability” (priority 2002, published 2005)

Tested on: Mice
Assay: Miles assay (induced vessel permeability)
Assay type: in vivo
Conditions: FIGS. 9A-9D
Method: One of the problems with angiogenesis-dependent diseases is increased vessel permeability (due to high levels of VPF) which results in edema and loss of proteins. A decrease in vessel permeability is beneficial in those diseases. We have found, using the Miles assay ([…], et al., Cancer Res, 56:172-181 (1996)), that free and bound TNP-470 block permeability. Briefly, a dye, Evans Blue (1% in PBS), was injected i.v. to anesthesized mice. After 10 min, human recombinant VEGF165 (50 ng/50 μl) was injected intradermally into the back skin. Leakage of protein-bound dye was detected as blue spots on the underside of the back skin surrounding the injection site. After 20 min mice were euthanized. Then, the skin was excised, left in formamide for 5 days to be extracted and the solution read at 620 nm. Putative angiogenesis inhibitors such as free and conjugated TNP-470 were injected daily 3 days (30 mg/kg/day) prior to the VEGF challenge. The same was repeated on tumor-bearing mice to evaluate the effect of angiogenesis inhibitors on tumor vessel permeability.

Herceptin: "indirect" angiogenesis inhibitor
vessel permeability: no effect
